According to US11365196B2, “FGFR inhibitor and application thereof” (Betta Pharmaceuticals Co., Ltd., priority 2017, dated 2022):

Legend:
SNU-16 cells = experiment: Cell proliferation assay on SNU-16, CellTiter Glo (Table 8); type: cell-based; details: Homo sapiens, 96 hrs, class symbols, read-out: IC50(nM) value of compounds on SNU-16 cells
Excerpt: (§1) Test method: adding the appropriate volume of whole medium and the cells was suspended.

NCI-H1581 cells = experiment: Cell proliferation assay on NCI-H1581 (Table 7); type: cell-based; details: Homo sapiens, NCI-H1581, read-out: IC50(nM) value of compounds on NCI-H1581 cells
Excerpt: as §1

| Compound | IC50 (SNU-16 cells) [nM] | IC50 (NCI-H1581 cells) [nM] |
| --- | --- | --- |
| COc1cc(OC)c(Cl)c(-c2cc3cnc(Nc4ccc(N5CCN(C)CC5)nc4)nc3n3cnnc23)c1 [Compound 110, 6-(2-chloro-3,5-dimethoxyphenyl)-N-(6-(4-methylpiperazin-1-yl)pyridin-3-yl)-[1,2,4]triazolo[4′,3′:1,6]pyrido[2,3-d]pyrimidin-2-amine] | < 1 | 1 to 10 |
| C=CC(=O)N1C[C@H]2CN(CCCc3nc4c(-c5c(Cl)c(OC)cc(OC)c5Cl)cc5cnc(NC)nc5n4n3)C[C@H]2C1 [Compound 128, 1-((3aR,6aS)-5-(3-(4-(2,6-dichloro-3,5-dimethoxyphenyl)-8-(methylamino)-[1,2,4]triazolo[1′,5′:1,6]pyrido[2,3-d]pyrimidin-2-yl)propyl)hexahydropyrrolo[3,4-c]pyrrol-2(1H)-yl)prop-2-en-1-one] | < 1 | 1 to 10 |
| C=CC(=O)Nc1ccc(CCc2nc3c(-c4c(Cl)c(OC)cc(OC)c4Cl)cc4cnc(NC)nc4n3n2)cc1 [Compound 120, N-(4-(2-(4-(2,6-dichloro-3,5-dimethoxyphenyl)-8-(methylamino)-[1,2,4]triazolo[1′,5′:1,6]pyrido[2,3-d]pyrimidin-2-yl)ethyl)phenyl)acrylamide] | < 1 | 1 to 10 |
